Chains of the proteins cited; added tags and fusions are not shown. Lines headed by an entry give the natural chain unless they say otherwise; changes in a name come on top.
UniProt P28222, whole entry: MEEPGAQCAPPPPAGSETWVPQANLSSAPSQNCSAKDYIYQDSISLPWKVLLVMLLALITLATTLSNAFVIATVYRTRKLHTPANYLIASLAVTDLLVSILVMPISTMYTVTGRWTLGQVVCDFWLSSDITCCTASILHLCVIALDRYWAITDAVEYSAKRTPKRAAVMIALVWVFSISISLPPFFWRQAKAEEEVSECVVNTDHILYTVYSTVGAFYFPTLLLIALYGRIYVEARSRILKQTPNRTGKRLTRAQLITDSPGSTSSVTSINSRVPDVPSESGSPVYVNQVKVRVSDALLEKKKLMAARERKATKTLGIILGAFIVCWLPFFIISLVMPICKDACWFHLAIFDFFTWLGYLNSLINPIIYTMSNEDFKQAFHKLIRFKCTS
UniProt P28566: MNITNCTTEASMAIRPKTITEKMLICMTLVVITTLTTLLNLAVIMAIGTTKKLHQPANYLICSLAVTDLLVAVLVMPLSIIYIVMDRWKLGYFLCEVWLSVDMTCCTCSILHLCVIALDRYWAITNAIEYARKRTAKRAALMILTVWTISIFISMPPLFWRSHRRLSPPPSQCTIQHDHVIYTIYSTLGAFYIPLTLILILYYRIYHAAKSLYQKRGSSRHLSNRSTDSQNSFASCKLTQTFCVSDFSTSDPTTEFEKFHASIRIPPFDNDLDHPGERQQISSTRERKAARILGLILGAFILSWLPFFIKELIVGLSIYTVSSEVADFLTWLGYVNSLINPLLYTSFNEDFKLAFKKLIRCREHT

In PMC6965684, “Characterization of binding, functional activity, and contractile responses of the selective 5‐HT1F receptor agonist lasmiditan” (British Journal of Pharmacology, 2019):

Legend:
5-HT1B receptor [1] = target: T1, 5-HT1B receptor (Homo sapiens, UniProt P28222); test: biochemical; type: CHO-K1 membranes; set-up: GTPγS agonist functional assay; conditions: GTPγS
T1 construct: gene HTR1B; full-length human recombinant receptor in CHO-K1 cells (Ogeda); crude membranes
Text: (§1) Additionally, the reference values obtained were compared to historical values obtained from the same receptor and used to validate the experimental session. […] For the new assays developed in this study (i.e., 5‐ht1E receptor), the two independent pIC50 determined must be concordant with a 1 log unit interval for the assays to be validated.

5-HT1B receptor [2] = target: T1, 5-HT1B receptor; test: cell-based; set-up: species or system CHO-K1; cAMP HTRF agonist assay, Gi coupled receptors, inhibition of stimulated cAMP; conditions: cAMP
Experimental: Concentration–response curves were performed in parallel with the agonists. […] After addition of the lysis buffer and 1‐hr incubation, cAMP concentrations were estimated according to the manufacturer specification with the HTRF kit (Cisbio International, Codelet, France). In brief, increasing concentrations of agonists were added to stably transfected cells in buffer in an Optiplate (PerkinElmer Life Sciences, Massachusetts, USA). The plates were incubated, and cells were then lysed by the addition of HTRF reagents (cAMP‐Cryptate and anti‐cAMP‐d2 reagents) and diluted in lysis buffer, followed by incubation at room temperature. […] Additionally, the reference values obtained were compared to historical values obtained from the same receptor and used to validate the experimental session. […] For the new assays developed in this study (i.e., 5‐ht1E receptor), the two independent pIC50 determined must be concordant with a 1 log unit interval for the assays to be validated.

5-HT1B receptor [3] = target: T1, 5-HT1B receptor; test: biochemical; type: CHO-K1 membranes; set-up: radioligand competition binding on cell membranes, filtration and TopCount scintillation counting; conditions: radioligand displacement; for IC50: read-out: 5‐HT1B / pIC50 (converted); for Ki: read-out: 5‐HT1B / pKi (converted)
Experimental: (§2) Competition binding was performed in duplicate in the wells of a 96‐well plate containing binding buffer (optimized for each receptor), cell membrane extracts (approximately 20,000 cells distributed in the 96‐well plate), radiotracer, and test agonist. Non‐specific binding was determined by co‐incubation with 200‐fold excess of competitor. Cells were incubated and exposed to varying concentrations (1 pM to 10 μM) of a range of displacer agonists (see below). The samples were incubated in a final volume of 0.1 ml and then filtered over Unifilter plates (Perkin Elmer, Massachusetts, USA) pretreated for 2 hr to limit tracer non‐specific binding. Filters were washed five times with 0.5 ml of ice‐cold washing buffer (tris 50 mM pH 7.4) and 50 μl of Microscint 20 (Perkin Elmer) were added to each filter. The plates were incubated 15 min at room temperature on an orbital shaker and then counted with a TopCount™ (Perkin Elmer) for 1 min per well. […] Additionally, the reference values obtained were compared to historical values obtained from the same receptor and used to validate the experimental session. […] For the new assays developed in this study (i.e., 5‐ht1E receptor), the two independent pIC50 determined must be concordant with a 1 log unit interval for the assays to be validated.

5-ht1E receptor [4] = target: T2, 5-ht1E receptor (Homo sapiens, UniProt P28566); test: biochemical; type: CHO-K1 membranes; set-up: radioligand competition binding on cell membranes, filtration and TopCount scintillation counting; conditions: radioligand displacement; read-out: 5‐ht1E / pKi (converted)
T2 construct: gene HTR1E; full-length human recombinant receptor in CHO-K1 cells (Ogeda); crude membranes
Experimental: as §2

5-ht1E receptor [5] = target: T2, 5-ht1E receptor; test: biochemical; type: CHO-K1 membranes; set-up: radioligand competition binding on cell membranes, filtration and TopCount scintillation counting; conditions: radioligand displacement; read-out: 5‐ht1E / pIC50 (converted)
Experimental: as §2, with “validated. […]” for “validated.”

5-ht1E receptor [6] = target: T2, 5-ht1E receptor; test: cell-based; set-up: species or system CHO-K1; cAMP HTRF agonist assay, Gi coupled receptors, inhibition of stimulated cAMP; conditions: cAMP
Experimental: Concentration–response curves were performed in parallel with the agonists. For agonist tests, 12 μl of cells were mixed with 6 μl of the test compound (at increasing concentrations) and 6 μl of https://www.guidetopharmacology.org/GRAC/LigandDisplayForward?ligandId=5190 and then incubated for 30 min at room temperature. After addition of the lysis buffer and 1‐hr incubation, cAMP concentrations were estimated according to the manufacturer specification with the HTRF kit (Cisbio International, Codelet, France). In brief, increasing concentrations of agonists were added to stably transfected cells in buffer in an Optiplate (PerkinElmer Life Sciences, Massachusetts, USA). The plates were incubated, and cells were then lysed by the addition of HTRF reagents (cAMP‐Cryptate and anti‐cAMP‐d2 reagents) and diluted in lysis buffer, followed by incubation at room temperature. As 5‐HT1B receptors have been reported in naïve CHO‐K1 cells (George, Bungay, & Naylor, 1997), we also tested https://www.guidetopharmacology.org/GRAC/LigandDisplayForward?ligandId=4 (5‐CT, the reference agonist for the 5‐HT1B receptor), in CHO‐K1 cells transfected with a non‐5‐HT, GPCR. […] For the new assays developed in this study (i.e., 5‐ht1E receptor), the two independent pIC50 determined must be concordant with a 1 log unit interval for the assays to be validated. […]

5-ht1E receptor [7] = target: T2, 5-ht1E receptor; test: biochemical; type: CHO-K1 membranes; set-up: GTPγS agonist functional assay; conditions: GTPγS
Text: as §1, with “validated. […]” for “validated.”

SMILES	pEC50 (5-HT1B receptor [1])	pEC50 (5-HT1B receptor [2])	IC50 (5-HT1B receptor [3]) [nM]	Ki (5-HT1B receptor [3]) [nM]	Ki (5-ht1E receptor [4]) [nM]	IC50 (5-ht1E receptor [5]) [nM]	pEC50 (5-ht1E receptor [6])	pEC50 (5-ht1E receptor [7])
CNC1CCc2[nH]c3ccc(C(N)=O)cc3c2C1 (racemic) [Frovatriptan racemate]	8.14	7.98	8.13	2.69				
CN(C)[C@@H]1CCc2[nH]c3ccc(NC(=O)c4ccc(F)cc4)cc3c2C1 [LY344864 hydrochloride]	5.82	< 5.00	741	245	447	891	6.22	6.12

pEC50: −log10 of the molar value. Structures can show the parent of a compound that is named as a salt.
